These results are taken from IntAct's records for PubMed 31515488.

B1: RAC-alpha serine/threonine-protein kinase (Homo sapiens), P31749-1 (parent)
chain: MSDVAIVKEGWLHKRGEYIKTWRPRYFLLKNDGTFIGYKERPQDVDQREAPLNNFSVAQCQLMKTERPRPNTFIIRCLQWTTVIERTFHVETPEEREEWTTAIQTVADGLKKQEEEEMDFRSGSPSDNSGAEEMEVSLAKPKHRVTMNEFEYLKLLGKGTFGKVILVKEKATGRYYAMKILKKEVIVAKDEVAHTLTENRVLQNSRHPFLTALKYSFQTHDRLCFVMEYANGGELFFHLSRERVFSEDRARFYGAEIVSALDYLHSEKNVVYRDLKLENLMLDKDGHIKITDFGLCKEGIKDGATMKTFCGTPEYLAPEVLEDNDYGRAVDWWGLGVVMYEMMCGRLPFYNQDHEKLFELILMEEIRFPRTLGPEAKSLLSGLLKKDPKQRLGGGSEDAKEIMQHRFFAGIVWQHVYEKKLSPPFKPQVTSETDTRYFDEEFTAQMITITPPDQDDSMECVDSERRPHFPQFSYSASGTA
B2: ADP-ribosylation factor-like protein 2 (Homo sapiens), P36404 (parent)
chain: MGLLTILKKMKQKERELRLLMLGLDNAGKTTILKKFNGEDIDTISPTLGFNIKTLEHRGFKLNIWDVGGQKSLRSYWRNYFESTDGLIWVVDSADRQRMQDCQRELQSLLVEERLAGATLLIFANKQDLPGALSSNAIREVLELDSIRSHHWCIQGCSAVTGENLLPGIDWLLDDISSRIFTAD
B3: 26S proteasome non-ATPase regulatory subunit 5 (Homo sapiens), Q16401 (parent)
chain: MAAQALALLREVARLEAPLEELRALHSVLQAVPLNELRQQAAELRLGPLFSLLNENHREKTTLCVSILERLLQAMEPVHVARNLRVDLQRGLIHPDDSVKILTLSQIGRIVENSDAVTEILNNAELLKQIVYCIGGENLSVAKAAIKSLSRISLTQAGLEALFESNLLDDLKSVMKTNDIVRYRVYELIIEISSVSPESLNYCTTSGLVTQLLRELTGEDVLVRATCIEMVTSLAYTHHGRQYLAQEGVIDQISNIIVGADSDPFSSFYLPGFVKFFGNLAVMDSPQQICERYPIFVEKVFEMIESQDPTMIGVAVDTVGILGSNVEGKQVLQKTGTRFERLLMRIGHQSKNAPVELKIRCLDAISSLLYLPPEQQTDDLLRMTESWFSSLSRDPLELFRGISSQPFPELHCAALKVFTAIANQPWAQKLMFNSPGFVEYVVDRSVEHDKASKDAKYELVKALANSKTIAEIFGNPNYLRLRTYLSEGPYYVKPVSTTAVEGAE
B4: PHD finger protein 21A (Homo sapiens), Q96BD5 (parent)
chain: MELQTLQEALKVEIQVHQKLVAQMKQDPQNADLKKQLHELQAKITALSEKQKRVVEQLRKNLIVKQEQPDKFQIQPLPQSENKLQTAQQQPLQQLQQQQQYHHHHAQQSAAASPNLTASQKTVTTASMITTKTLPLVLKAATATMPASVVGQRPTIAMVTAINSQKAVLSTDVQNTPVNLQTSSKVTGPGAEAVQIVAKNTVTLVQATPPQPIKVPQFIPPPRLTPRPNFLPQVRPKPVAQNNIPIAPAPPPMLAAPQLIQRPVMLTKFTPTTLPTSQNSIHPVRVVNGQTATIAKTFPMAQLTSIVIATPGTRLAGPQTVQLSKPSLEKQTVKSHTETDEKQTESRTITPPAAPKPKREENPQKLAFMVSLGLVTHDHLEEIQSKRQERKRRTTANPVYSGAVFEPERKKSAVTYLNSTMHPGTRKRGRPPKYNAVLGFGALTPTSPQSSHPDSPENEKTETTFTFPAPVQPVSLPSPTSTDGDIHEDFCSVCRKSGQLLMCDTCSRVYHLDCLDPPLKTIPKGMWICPRCQDQMLKKEEAIPWPGTLAIVHSYIAYKAAKEEEKQKLLKWSSDLKQEREQLEQKVKQLSNSISKCMEMKNTILARQKEMHSSLEKVKQLIRLIHGIDLSKPVDSEATVGAISNGPDCTPPANAATSTPAPSPSSQSCTANCNQGEETK
partner: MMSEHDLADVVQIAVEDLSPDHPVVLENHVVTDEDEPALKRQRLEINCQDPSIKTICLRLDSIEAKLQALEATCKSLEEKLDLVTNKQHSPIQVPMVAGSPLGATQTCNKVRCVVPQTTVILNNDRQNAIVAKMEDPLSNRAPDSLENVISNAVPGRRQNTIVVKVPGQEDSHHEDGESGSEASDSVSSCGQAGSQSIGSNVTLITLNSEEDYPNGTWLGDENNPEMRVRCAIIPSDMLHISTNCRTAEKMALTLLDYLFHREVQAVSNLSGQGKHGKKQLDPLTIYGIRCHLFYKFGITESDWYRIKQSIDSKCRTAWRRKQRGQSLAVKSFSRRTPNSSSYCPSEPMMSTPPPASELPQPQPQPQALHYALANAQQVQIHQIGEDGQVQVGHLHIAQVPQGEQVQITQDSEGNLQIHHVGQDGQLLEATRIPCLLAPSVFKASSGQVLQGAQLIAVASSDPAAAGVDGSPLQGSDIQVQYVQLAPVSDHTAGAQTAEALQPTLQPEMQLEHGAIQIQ
B5: Histone-lysine N-methyltransferase SUV39H2 (Homo sapiens), Q9H5I1 (parent)
chain: MAAVGAEARGAWCVPCLVSLDTLQELCRKEKLTCKSIGITKRNLNNYEVEYLCDYKVVKDMEYYLVKWKGWPDSTNTWEPLQNLKCPLLLQQFSNDKHNYLSQVKKGKAITPKDNNKTLKPAIAEYIVKKAKQRIALQRWQDELNRRKNHKGMIFVENTVDLEGPPSDFYYINEYKPAPGISLVNEATFGCSCTDCFFQKCCPAEAGVLLAYNKNQQIKIPPGTPIYECNSRCQCGPDCPNRIVQKGTQYSLCIFRTSNGRGWGVKTLVKIKRMSFVMEYVGEVITSEEAERRGQFYDNKGITYLFDLDYESDEFTVDAARYGNVSHFVNHSCDPNLQVFNVFIDNLDTRLPRIALFSTRTINAGEELTFDYQMKGSGDISSDSIDHSPAKKRVRTVCKCGAVTCRGYLN
partner: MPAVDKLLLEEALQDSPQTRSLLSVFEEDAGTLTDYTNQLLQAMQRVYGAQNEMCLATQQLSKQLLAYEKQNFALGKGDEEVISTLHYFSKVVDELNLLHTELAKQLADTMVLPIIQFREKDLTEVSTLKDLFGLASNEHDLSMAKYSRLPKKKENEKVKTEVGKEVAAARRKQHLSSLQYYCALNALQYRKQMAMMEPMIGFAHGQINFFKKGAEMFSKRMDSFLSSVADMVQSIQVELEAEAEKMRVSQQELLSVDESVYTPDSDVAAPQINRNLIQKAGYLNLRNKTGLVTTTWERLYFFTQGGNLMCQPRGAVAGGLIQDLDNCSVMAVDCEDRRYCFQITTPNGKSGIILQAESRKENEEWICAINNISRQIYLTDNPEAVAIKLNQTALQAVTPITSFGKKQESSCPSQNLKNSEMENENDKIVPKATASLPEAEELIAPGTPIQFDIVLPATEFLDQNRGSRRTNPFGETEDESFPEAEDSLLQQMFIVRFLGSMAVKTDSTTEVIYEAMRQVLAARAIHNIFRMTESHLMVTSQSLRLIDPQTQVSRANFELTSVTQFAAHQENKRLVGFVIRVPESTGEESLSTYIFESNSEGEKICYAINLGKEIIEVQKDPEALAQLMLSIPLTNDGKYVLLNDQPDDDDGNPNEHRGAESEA
B6: Large proline-rich protein BAG6 (Homo sapiens), P46379 (parent)
chain: MEPNDSTSTAVEEPDSLEVLVKTLDSQTRTFIVGAQMNVKEFKEHIAASVSIPSEKQRLIYQGRVLQDDKKLQEYNVGGKVIHLVERAPPQTHLPSGASSGTGSASATHGGGSPPGTRGPGASVHDRNANSYVMVGTFNLPSDGSAVDVHINMEQAPIQSEPRVRLVMAQHMIRDIQTLLSRMETLPYLQCRGGPQPQHSQPPPQPPAVTPEPVALSSQTSEPVESEAPPREPMEAEEVEERAPAQNPELTPGPAPAGPTPAPETNAPNHPSPAEYVEVLQELQRLESRLQPFLQRYYEVLGAAATTDYNNNHEGREEDQRLINLVGESLRLLGNTFVALSDLRCNLACTPPRHLHVVRPMSHYTTPMVLQQAAIPIQINVGTTVTMTGNGTRPPPTPNAEAPPPGPGQASSVAPSSTNVESSAEGAPPPGPAPPPATSHPRVIRISHQSVEPVVMMHMNIQDSGTQPGGVPSAPTGPLGPPGHGQTLGQQVPGFPTAPTRVVIARPTPPQARPSHPGGPPVSGTLQGAGLGTNASLAQMVSGLVGQLLMQPVLVAQGTPGMAPPPAPATASASAGTTNTATTAGPAPGGPAQPPPTPQPSMADLQFSQLLGNLLGPAGPGAGGSGVASPTITVAMPGVPAFLQGMTDFLQATQTAPPPPPPPPPPPPAPEQQTMPPPGSPSGGAGSPGGLGLESLSPEFFTSVVQGVLSSLLGSLGARAGSSESIAAFIQRLSGSSNIFEPGADGALGFFGALLSLLCQNFSMVDVVMLLHGHFQPLQRLQPQLRSFFHQHYLGGQEPTPSNIRMATHTLITGLEEYVRESFSLVQVQPGVDIIRTNLEFLQEQFNSIAAHVLHCTDSGFGARLLELCNQGLFECLALNLHCLGGQQMELAAVINGRIRRMSRGVNPSLVSWLTTMMGLRLQVVLEHMPVGPDAILRYVRRVGDPPQPLPEEPMEVQGAERASPEPQRENASPAPGTTAEEAMSRGPPPAPEGGSRDEQDGASAETEPWAAAVPPEWVPIIQQDIQSQRKVKPQPPLSDAYLSGMPAKRRKTMQGEGPQLLLSEAVSRAAKAAGARPLTSPESLSRDLEAPEVQESYRQQLRSDIQKRLQEDPNYSPQRFPNAQRAFADDP
partner: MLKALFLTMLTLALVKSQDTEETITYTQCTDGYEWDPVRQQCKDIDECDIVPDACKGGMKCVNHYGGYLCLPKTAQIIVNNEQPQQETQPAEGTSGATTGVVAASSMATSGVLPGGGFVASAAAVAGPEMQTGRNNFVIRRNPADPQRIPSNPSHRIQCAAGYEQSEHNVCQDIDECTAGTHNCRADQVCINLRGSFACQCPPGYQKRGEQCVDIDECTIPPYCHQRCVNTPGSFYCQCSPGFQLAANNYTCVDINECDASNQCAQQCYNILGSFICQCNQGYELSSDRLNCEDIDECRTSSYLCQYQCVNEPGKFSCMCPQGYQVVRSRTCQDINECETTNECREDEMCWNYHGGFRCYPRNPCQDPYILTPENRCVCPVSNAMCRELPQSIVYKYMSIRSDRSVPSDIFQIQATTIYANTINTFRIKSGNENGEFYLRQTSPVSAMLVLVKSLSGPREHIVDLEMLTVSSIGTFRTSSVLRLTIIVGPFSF
B7: TNFAIP3-interacting protein 1 (Homo sapiens), Q15025 (parent)
chain: MEGRGPYRIYDPGGSVPSGEASAAFERLVKENSRLKEKMQGIKMLGELLEESQMEATRLRQKAEELVKDNELLPPPSPSLGSFDPLAELTGKDSNVTASPTAPACPSDKPAPVQKPPSSGTSSEFEVVTPEEQNSPESSSHANAMALGPLPREDGNLMLHLQRLETTLSVCAEEPDHGQLFTHLGRMALEFNRLASKVHKNEQRTSILQTLCEQLRKENEALKAKLDKGLEQRDQAAERLREENLELKKLLMSNGNKEGASGRPGSPKMEGTGKKAVAGQQQASVTAGKVPEVVALGAAEKKVKMLEQQRSELLEVNKQWDQHFRSMKQQYEQKITELRQKLADLQKQVTDLEAEREQKQRDFDRKLLLAKSKIEMEETDKEQLTAEAKELRQKVKYLQDQLSPLTRQREYQEKEIQRLNKALEEALSIQTPPSSPPTAFGSPEGAGALLRKQELVTQNELLKQQVKIFEEDFQRERSDRERMNEEKEELKKQVEKLQAQVTLSNAQLKAFKDEEKAREALRQQKRKAKASGERYHVEPHPEHLCGAYPYAYPPMPAMVPHHGFEDWSQIRYPPPPMAMEHPPPLPNSRLFHLPEYTWRLPCGGVRNPNQSSQVMDPPTARPTEPESPKNDREGPQ
partner: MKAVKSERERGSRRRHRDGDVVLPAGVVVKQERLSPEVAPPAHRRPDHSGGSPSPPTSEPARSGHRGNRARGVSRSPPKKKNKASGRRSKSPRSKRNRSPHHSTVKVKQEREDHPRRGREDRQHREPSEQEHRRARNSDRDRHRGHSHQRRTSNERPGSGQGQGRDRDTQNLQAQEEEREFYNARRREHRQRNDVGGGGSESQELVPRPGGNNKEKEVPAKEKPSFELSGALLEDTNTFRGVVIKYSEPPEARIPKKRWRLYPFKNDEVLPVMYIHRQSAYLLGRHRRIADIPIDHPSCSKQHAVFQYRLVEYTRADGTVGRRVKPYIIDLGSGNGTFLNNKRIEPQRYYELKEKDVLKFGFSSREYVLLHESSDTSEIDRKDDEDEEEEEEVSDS

In the first experiment the parent is B1. To be noted: with tcl1a_human TCL1A.
For L153P, the “effect of a mutation on the interaction” value was “disrupting interaction strength”.

The variants in another experiment derive from B2. Particulars: with pde6d_human PDE6D.
For the variant R139C, the “effect of a mutation on the interaction” value was “with no effect”.

Another experiment covers variants of B3. Particulars: with prs4_human PSMC1, P62191.
In the case of A7S, the “effect of a mutation on the interaction” value was “disrupting interaction strength”.

The variants in another experiment derive from B3. To be noted: with prs7_human PSMC2, P35998.
For the variant A7S, the “effect of a mutation on the interaction” value was “with no effect”.

In the next experiment the parent is B4. To be noted: with banp_human BANP.
Turning to R347H, the “effect of a mutation on the interaction” value is on record as “with no effect”.

The variants in another experiment derive from B5. Particulars: with dp13b_human APPL2, Q8NEU8.
Turning to S182T, the “effect of a mutation on the interaction” value is reported as “with no effect”.

The variants in a further experiment derive from B6. Particulars: with fbln3_human EFEMP1, Q12805.
For the variant S625P, the “effect of a mutation on the interaction” value is on record as “with no effect”.

In a further experiment the parent is B7. Particulars: with snip1_human SNIP1, Q8TAD8.
Take V16M: the “effect of a mutation on the interaction” value was “with no effect”.
Still for that read-out and setting: the entry for K30T is “with no effect”; for G178S it is “with no effect”.
